Laboratory results reported in patent US20230233577A1, “17Beta-ESTRADIOL/VITAMIN C MOLECULAR COMPLEX, PREPARATION METHOD, AND USE THEREOF” (ZHEJIANG MEDICINE CO., LTD.XINCHANG PHARMACEUTICAL FACTORY, priority 2020, published 2023).

System: ovariectomized female mice
Settings: mouse, in vivo

conjugated estrogens
Lesions of uterine glands (in words): could cause lesions of uterine glands | Thickening of endometria and oviduct walls (in words): could induce the thickening of endometria and oviduct walls | Thickness of endometrium (pathological section) (0.104 mg/kg/day): 27.80 μm | Thickness of oviduct wall (pathological section) (0.104 mg/kg/day): 75.01 μm | Uterine gland pathology (in words) (0.104 mg/kg/day): the density of a tissue around the uterine gland is significantly reduced
